These are literature values, as cited in patent US20250121105A1, “METHODS FOR TREATING CANCER USING COMBINATIONS OF PARP INHIBITORS AND ANTIBODY RADIOCONJUGATES” (ACTINIUM PHARMACEUTICALS, INC., priority 2019, published 2025).

Chains of the proteins cited; added tags and fusions are not shown.
UniProt P09874, whole entry: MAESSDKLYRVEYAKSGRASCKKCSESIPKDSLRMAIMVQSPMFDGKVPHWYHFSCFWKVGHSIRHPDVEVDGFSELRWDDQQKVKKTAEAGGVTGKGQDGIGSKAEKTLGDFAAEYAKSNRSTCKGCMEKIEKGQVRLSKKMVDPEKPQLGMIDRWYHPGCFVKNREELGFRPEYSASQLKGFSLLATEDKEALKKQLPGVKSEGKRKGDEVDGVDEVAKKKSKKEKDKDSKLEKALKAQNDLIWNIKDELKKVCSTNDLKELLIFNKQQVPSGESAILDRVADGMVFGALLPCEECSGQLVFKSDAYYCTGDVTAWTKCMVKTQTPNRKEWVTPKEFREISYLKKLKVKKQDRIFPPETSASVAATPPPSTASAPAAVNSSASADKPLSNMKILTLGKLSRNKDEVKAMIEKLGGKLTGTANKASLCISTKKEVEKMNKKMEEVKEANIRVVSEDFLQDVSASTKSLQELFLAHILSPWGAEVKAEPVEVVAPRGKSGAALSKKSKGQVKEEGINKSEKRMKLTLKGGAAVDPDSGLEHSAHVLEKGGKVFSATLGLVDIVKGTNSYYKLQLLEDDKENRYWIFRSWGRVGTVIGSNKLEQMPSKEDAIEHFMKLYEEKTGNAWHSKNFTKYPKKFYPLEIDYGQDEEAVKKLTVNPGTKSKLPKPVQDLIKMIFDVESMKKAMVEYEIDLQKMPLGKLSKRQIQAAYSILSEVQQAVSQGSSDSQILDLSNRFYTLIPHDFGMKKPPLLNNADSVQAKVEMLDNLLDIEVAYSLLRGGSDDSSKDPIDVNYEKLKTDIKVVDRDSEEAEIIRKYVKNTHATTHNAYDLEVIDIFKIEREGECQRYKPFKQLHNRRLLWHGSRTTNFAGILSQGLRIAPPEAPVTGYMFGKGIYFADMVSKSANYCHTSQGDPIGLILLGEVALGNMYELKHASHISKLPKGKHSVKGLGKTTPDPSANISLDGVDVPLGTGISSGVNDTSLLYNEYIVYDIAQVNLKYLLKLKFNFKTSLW

SMILES strings stand for the structures.

This data set deals with PARP1 (Homo sapiens, UniProt P09874). Conditions: compared with veliparib.

With `Cn1ncnc1[C@H]1c2n[nH]c(=O)c3cc(F)cc(c23)N[C@@H]1c1ccc(F)cc1` [talazoparib], the “capability to trap PARP1 on DNA” value is “more effective in trapping PARP1 than are veliparib”.
